This passage reports IC50 results from patent US10800791B2, “Triazole ACC inhibitors and uses thereof” (Gilead Apollo, LLC, priority 2015, dated 2020).

Protein sequences, listed by entry. Tags and fused reporters are not part of them.
UniProt Q00955, whole entry: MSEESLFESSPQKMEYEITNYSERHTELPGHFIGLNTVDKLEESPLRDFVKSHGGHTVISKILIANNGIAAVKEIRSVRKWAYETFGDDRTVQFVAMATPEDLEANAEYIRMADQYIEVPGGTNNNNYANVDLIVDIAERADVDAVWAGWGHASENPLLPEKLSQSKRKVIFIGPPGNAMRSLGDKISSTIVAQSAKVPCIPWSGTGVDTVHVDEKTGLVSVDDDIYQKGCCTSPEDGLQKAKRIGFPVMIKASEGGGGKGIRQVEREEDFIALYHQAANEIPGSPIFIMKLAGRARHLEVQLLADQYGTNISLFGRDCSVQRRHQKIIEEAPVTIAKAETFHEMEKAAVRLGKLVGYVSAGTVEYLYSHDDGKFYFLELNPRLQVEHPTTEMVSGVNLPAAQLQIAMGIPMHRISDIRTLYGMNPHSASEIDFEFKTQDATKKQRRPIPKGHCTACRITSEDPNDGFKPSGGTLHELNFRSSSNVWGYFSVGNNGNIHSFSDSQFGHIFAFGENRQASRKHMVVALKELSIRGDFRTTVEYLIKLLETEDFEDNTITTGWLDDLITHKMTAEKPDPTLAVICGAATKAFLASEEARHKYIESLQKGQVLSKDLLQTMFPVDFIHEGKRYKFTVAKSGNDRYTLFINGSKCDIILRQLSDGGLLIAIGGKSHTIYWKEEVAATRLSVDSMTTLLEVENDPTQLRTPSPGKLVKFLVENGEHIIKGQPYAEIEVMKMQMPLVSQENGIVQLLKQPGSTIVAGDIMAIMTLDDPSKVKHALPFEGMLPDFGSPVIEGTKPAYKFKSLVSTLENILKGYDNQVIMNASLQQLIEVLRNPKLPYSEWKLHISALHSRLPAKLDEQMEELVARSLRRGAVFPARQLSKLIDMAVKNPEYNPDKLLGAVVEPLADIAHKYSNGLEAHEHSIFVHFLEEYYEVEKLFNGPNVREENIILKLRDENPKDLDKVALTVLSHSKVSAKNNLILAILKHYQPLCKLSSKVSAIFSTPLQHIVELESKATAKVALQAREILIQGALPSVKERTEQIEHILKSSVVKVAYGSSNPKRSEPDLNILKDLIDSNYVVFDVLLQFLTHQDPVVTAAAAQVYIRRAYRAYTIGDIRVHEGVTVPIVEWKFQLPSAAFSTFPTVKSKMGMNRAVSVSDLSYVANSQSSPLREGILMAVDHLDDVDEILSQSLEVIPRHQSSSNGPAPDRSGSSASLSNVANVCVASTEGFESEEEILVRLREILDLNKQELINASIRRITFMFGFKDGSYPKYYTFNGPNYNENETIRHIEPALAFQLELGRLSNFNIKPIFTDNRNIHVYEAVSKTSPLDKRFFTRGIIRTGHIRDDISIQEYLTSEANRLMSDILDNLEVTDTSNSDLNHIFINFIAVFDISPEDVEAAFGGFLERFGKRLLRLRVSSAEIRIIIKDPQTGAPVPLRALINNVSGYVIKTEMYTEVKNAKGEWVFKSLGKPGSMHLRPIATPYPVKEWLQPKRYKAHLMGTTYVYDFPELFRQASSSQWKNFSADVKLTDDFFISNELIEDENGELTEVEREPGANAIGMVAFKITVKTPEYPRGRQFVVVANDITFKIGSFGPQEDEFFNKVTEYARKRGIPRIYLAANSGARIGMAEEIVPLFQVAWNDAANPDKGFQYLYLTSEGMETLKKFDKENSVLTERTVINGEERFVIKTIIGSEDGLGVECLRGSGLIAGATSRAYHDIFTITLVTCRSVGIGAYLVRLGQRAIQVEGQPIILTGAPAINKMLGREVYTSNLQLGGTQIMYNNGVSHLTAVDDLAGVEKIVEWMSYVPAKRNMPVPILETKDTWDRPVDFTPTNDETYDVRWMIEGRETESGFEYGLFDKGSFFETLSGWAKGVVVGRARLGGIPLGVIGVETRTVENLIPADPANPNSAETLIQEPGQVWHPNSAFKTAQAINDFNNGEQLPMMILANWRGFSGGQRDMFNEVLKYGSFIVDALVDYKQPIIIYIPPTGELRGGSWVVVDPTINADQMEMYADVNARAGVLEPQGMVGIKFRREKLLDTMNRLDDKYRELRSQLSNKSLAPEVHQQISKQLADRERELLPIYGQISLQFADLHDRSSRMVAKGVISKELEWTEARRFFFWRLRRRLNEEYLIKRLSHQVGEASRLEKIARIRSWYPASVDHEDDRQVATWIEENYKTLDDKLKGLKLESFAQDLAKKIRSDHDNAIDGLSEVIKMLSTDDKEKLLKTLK

For orientation: IC50 means the concentration that inhibits the measured activity by half.

Each structure is given as a SMILES string.

This assay addresses fungal (fACC2) (UniProt Q00955). As to conditions: read-out: fACC2 (in vitro ACC2 Inhibition Assay, IC50); Table 2b, additional results; ADP-Glo, 5 nM ACC2, 20 μM ATP, 20 μM acetyl-CoA. (In general: In ADP-Glo the light output rises with the ADP produced.)

Turning to `Cc1c(-n2nccn2)sc2c1c(=O)n(C(C)(C)C(=O)NC(C)C)c(=O)n2C[C@H](O)c1cc(F)ccc1OCC#N` [Compound I-199], the IC50 is 0.3 to 1 nM.
